Laboratory results: patent publication US20210161997A1, “TREATING DISEASES VIA TARGETED MODULATION OF GENE SIGNALING NETWORKS” (Camp4 Therapeutics Corporation, priority 2018, published 2021)

Key:
Assay type in all cases: cell-based
CPOX = assay: RNA-seq of CPOX expression in compound-treated primary human hepatocytes; settings: significance FPKM ≥0.5, log 2(fold change) ≥0.3, q-value ≤0.05
Description: (§1) Human hepatocytes were obtained from two donors from Massachusetts General Hospital, namely MGH54 and MGH63, and one donor from Lonza, namely HUM4111B. Cryopreserved hepatocytes were cultured in plating media for 16 hours, transferred to maintenance media for 4 hours. Cultured on serum-free media for 2 hours, then a compound was added. The hepatocytes were maintained on the serum-free media for 16 hours prior to gene expression analysis. Primary human hepatocytes were stored in the vapor phase of a liquid nitrogen freezer (about −130° C.).
(§2) Human hepatocytes cultured as described above were plated in 24-well format, adding 375,000 cells per well in a volume of 500 ul plating medium. Four hours before treatment, cells were washed with PBS and the medium was changed to either: fresh maintenance medium (complete) or modified maintenance medium. […]
(§3) For mRNA isolation and library prep, the NEBNext Poly(A) mRNA Magnetic Isolation Module and Directional Prep kit was used. RNA isolated from cells above was quantified, and prepared in […] of each sample in 50 μl of nuclease-free water. […]
(§4) Standard QC were applied (read integrity, mapping statistics, library complexity, fragment bias) to remove unsatisfactory samples. […] RNA-seq signals were also normalized by read depth and visualized using the UCSC browser. […]

SLC37A4 = assay: RNA-seq of SLC37A4 expression in compound-treated primary human hepatocytes
Description: as §1
Human hepatocytes cultured as described above were plated in 24-well format, adding 375,000 cells per well in a volume of 500 ul plating medium. Four hours before treatment, cells were washed with PBS and the medium was changed to either: fresh maintenance medium (complete) or modified maintenance medium.
Compound stocks were prepared at 1000× final concentration and added in a 2-step dilution to the medium to reduce risk of a compound precipitating out of solution when added to the cells, and to ensure reasonable pipetting volumes. […]
as §3

UGT1A1 = assay: RNA-seq of UGT1A1 expression in compound-treated primary human hepatocytes
Description: as §1, §2, §3, §4

**Q.** For GZD824 Dimesylate, which “CPOX Fold change (Log2)” value (CPOX) is on record?
**A.** 0.37 Log2

**Q.** And the “SLC37A4 Fold Change (Log2)” value (SLC37A4)?
**A.** 0.74 Log2

**Q.** And the “UGT1A1 Fold Change (Log2)” value (UGT1A1)?
**A.** 0.86 Log2
